Source: US20070271623A1 (UNIVERSITY OF COPENHAGEN, published 2007)

Molecular target: T1, 35S-methionine-labelled MPK4 (Arabidopsis thaliana, UniProt Q39024 1-376, limits assumed, 35S-methionine-labelled)
T1 construct: also called 35S-MPK4; in vitro synthesized MPK4
T1 sequence (looked up): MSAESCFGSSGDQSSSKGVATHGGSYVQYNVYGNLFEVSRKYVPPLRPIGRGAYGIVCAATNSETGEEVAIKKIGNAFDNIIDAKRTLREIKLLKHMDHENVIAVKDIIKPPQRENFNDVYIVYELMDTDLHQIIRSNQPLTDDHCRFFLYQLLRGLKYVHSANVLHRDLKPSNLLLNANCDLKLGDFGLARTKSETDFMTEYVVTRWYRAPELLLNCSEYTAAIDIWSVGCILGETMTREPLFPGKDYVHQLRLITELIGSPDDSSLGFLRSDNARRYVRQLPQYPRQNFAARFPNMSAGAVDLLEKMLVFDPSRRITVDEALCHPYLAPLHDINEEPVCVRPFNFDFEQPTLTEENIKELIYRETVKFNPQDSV
Experiment: GST pull-down, SDS-PAGE, phosphoimager

B1: GST protein alone (other, UniProt P08515 1-218, looked up)
chain: MSPILGYWKIKGLVQPTRLLLEYLEEKYEEHLYERDEGDKWRNKKFELGLEFPNLPYYIDGDVKLTQSMAIIRYIADKHNMLGGCPKERAEISMLEGAVLDIRYGVSRIAYSKDFETLKVDFLSKLPEMLKMFEDRLCHKTYLNGDHVTHPDFMLYDALDVVLYMDPMCLDAFPKLVCFKKRIEAIPQIDKYLKSSKYIAWPLQGWQATFGGGDHPPK
notes: Negative control on glutathione-Sepharose beads; also called Glutathione-S-transferase
  binding result: no binding
